# According to US20060167229A1, “Biologically active peptide conjugates” (priority 2002, published 2006):
# Key:
# T lymphocyte = T lymphocyte transformation test (ConA-stimulated spleen cells of treated mice, MTT); assay type: in vivo, BALB/c mice; conditions: healthy mice, saline 1.3 ± 0.1
# Experimental: The above substances were all dissolved in 0.5 ml saline and injected intraperitoneal (i.p.) for 15 continuous days, once per day.
# The BALB/c mice were randomly divided into the peptide, IFN, IL-2, and saline groups. Ten mice per group. The day after the last test substance administration, the mice were sacrificed by cervical dislocation. The spleen was isolated aseptically and manually dispersed in cold D-Hank's solution using an injection needle. The dispersed cell suspension was further sieved through a 100 gauge 150 μm diameter stainless steel sieve. After centrifugation at 200 g for 10 minutes, the supernatant was discarded. The cell pellet was re-suspended in 10 volume of Tris-NH4Cl buffer and then kept standing still for 10 minutes at room temperature. The suspended cells were collected by centrifugation at 150 g for 10 minutes. The cells were washed 2-4 times with cold D-Hank's solution by re-suspending and collecting by centrifugation with condition as described above. The washed cells were then diluted to the desired cell densities by RPMI-1640 culture medium, containing 10% fetal bovine serum.
# Spleen cells of density 1×10^6/ml were placed onto a 96 wells cell culture plate, 100 μL/well, three parallel wells each of the assay sample and control sample per mouse. To the assay wells, 100 μl/well ConA of 100 μg/ml in RPMI-1640 was added, and […] plain RPMI-1640 was used for the controls. The cells were incubated for 66 hrs at 37° C., 5% CO2. The cells were then pelleted by centrifugation at 150 g for 10 minutes. The supernatant was collected and stored at −20° C. for cytokines IL-2 and IFN determination.
# 50 μl/well MTT of 1 mg/ml in RPMI-1640 was added to the cell pellet and the cells re-suspended by shaking for 2 minutes. The incubation was continued for 4 hours. The supernatant was discarded after centrifugation at 150 g for 10 minutes. 120 μl 40 mM HCl-2-propanol was added to the cell pellet and shaken for 3 minutes. […]
# Each mouse formed three assay wells and three control wells. The Stimulation Index (SI) of each mouse was obtained by first deriving the average OD of the three parallel wells, then dividing the value of the assay wells by the control wells.
# mononuclear phagocyte = assay: Phagocytotic function of mononuclear phagocyte in mice with transplanted S180 sarcoma; assay type: in vivo, BALB/c mice; conditions: controls: IL-2, IFN-γ 3 × 10^5 IU/kg, cyclophosphamide 20 mg/kg, saline 5.38 ± 0.85
# Experimental: Intraperitoneal injection, once per day. […] Treatment of all groups with testing substance lasted for 30 days or until the animal died unless otherwise specified.
# Stock S180 sarcoma cells were incubated in DMEM/F12 medium supplemented with 10% fetal bovine serum, 37° C., 5% CO2 for 72 hrs, then washed 3-4 times with Hank's solution at room temperature. Adjust the cell concentration to 1-2×10^9 per litre with Hank's solution. […] The mice were killed by cervical vertebra dislocation. Vigorously growing and non-disrupted tumor masses were harvested and washed clean with sterile saline. The tissue was dispersed in saline to a homogenous cell suspension, in a ratio of 1 g tissue to 4 ml saline. The sarcoma bearing mice model was prepared with an injection of 0.2 ml cell suspension through the armpit. […]
# 2.1 The effect of peptides on the phagocytotic function of mononuclear phagocyte in mice with S180 sarcoma was analysed by injecting mice from the tail vein with 0.1 ml/10 g body weight of Indian ink (1:5 dilution with normal saline) on the second day after the last test substance administration. […] The outline clear index K was calculated by the following formula: K=(lgA1−lgA2)÷(t2−t1)
# After the phagocytosis index study, the mice were killed by cervical vertebra dislocation. […] The phagocytosis index a was calculated as below: α=(^3√{square root over ( )}K)×(W÷WLS)
# thymus gland = assay: Immunity organ weight test, thymus gland index; assay type: in vivo, BALB/c mice; conditions: healthy mice, saline 0.12 ± 0.02
# Experimental: One day after the last test substance administration (day 16), the liver, spleen, and thymus gland were separated and blotted dry with filter paper and weighed. The phagocytosis index α was calculated as below: α=(^3√{square root over ( )}K)(W÷WLS)
# Thymus gland index (%)=(thymus weight/body weight)×100%
# L1210 leukemia = assay: Survival of mice with transplanted L1210 leukemia; assay type: in vivo, DBA/2 mice; conditions: cyclophosphamide 20 mg/kg
# Experimental: Intraperitoneal injection, once per day. […] The cyclophosphamide groups were treated on the next day after transplanting the cancer cells. Treatment of all groups with testing substance lasted for 30 days or until the animal died unless otherwise specified.
# Stock L1210 cells were incubated in DMEM/F12 medium supplemented with 10% fetal bovine serum, 37° C./5% CO2 for 72 hrs, then washed 3-4 times with Hank's solution, and adjusted to […]. 0.1 ml of the cell suspension was implanted into the abdominal cavity of several healthy DBA mice for 6-8 days. The mice were then killed by cervical vertebra dislocation and their ascitic fluid collected aseptically. The cell concentration of the collected ascitic fluid was adjusted to 1×10^5 per ml with Hank's solution. 0.1 ml of the cell suspension was implanted into each of the testing animal and the survival data of the animals recorded. Treatment started in the testing animals as described in section Method 1. Mean survival day was obtained by the Kaplan-meier method in the Survival option of the SPSS software. If the animal survived longer than the experiment, the survival days was entered as the duration of the experiment. The survival index was calculated according to the following formula: Survival index=(mean survival days of treatment group−mean survival days of control group)÷mean survival days of control group 6. […]
# [1] = peptide 0.5 μg/kg/day i.p. 15 days (IFN-γ, IL-2 3×10^5 IU/kg/day)
# [2] = peptide 5 μg/kg/day i.p. 15 days (IFN-γ, IL-2 3×10^5 IU/kg/day)
# [3] = peptide 50 μg/kg/day i.p. 15 days (IFN-γ, IL-2 3×10^5 IU/kg/day)
# [4] = peptide 500 μg/kg/day i.p. 15 days (IFN-γ, IL-2 3×10^5 IU/kg/day)
substance,measurement,setting,value
"IL-2: recombinant human IL (rhIL)-2, Shanghai Huaxin Biotech Inc.; positive control",X ± SD (stimulation index),T lymphocyte; [1],1.6 ± 0.1
same,X ± SD (stimulation index),T lymphocyte; [2],1.6 ± 0.1
same,X ± SD (stimulation index),T lymphocyte; [3],1.8 ± 0.2
same,X ± SD (stimulation index),T lymphocyte; [4],1.7 ± 0.2
same,Phagocytosis index,mononuclear phagocyte,6.96 ± 1.37
same,"weight of thymus gland (thymus gland index), X ± SD (%)",thymus gland; [1],0.14 ± 0.04%
same,"weight of thymus gland (thymus gland index), X ± SD (%)",thymus gland; [2],0.14 ± 0.04%
same,"weight of thymus gland (thymus gland index), X ± SD (%)",thymus gland; [3],0.14 ± 0.04%
same,"weight of thymus gland (thymus gland index), X ± SD (%)",thymus gland; [4],0.14 ± 0.03%
same,Survival index (%),L1210 leukemia; controls: IL-2 3 × 10^5 IU/kg,92.3%
same,Survival days,"L1210 leukemia; controls: IL-2, IFN-γ 3 × 10^5 IU/kg, saline 16.6 ± 5.6",32.0 ± 13.7 days
